One test has as its system MDSC cultures. The test is described as follows: IL-2-induced T-lymphocyte differentiation of MDSC cultures. In kind it is cell-based, human. Particulars: 1200 units/ml IL-2, 4 days. Here is the method: (§1) To determine whether the MDSCs could also be induced to mature along another blood lineage, the ability of IL-2 to induce T-lymphocyte differentiation was tested. Treatment of four MDSC cultures with 1200 units/ml IL-2 for 4 days induced the cells to acquire a round morphology. […] Press, New York 1995). The IL-2-induced cells also acquired an increased ability to kill target cells, a functional marker for cytotoxic/suppressor T-lymphocytes. Using a 5:1 effector to target cell ratio, the IL-2-induced lymphocytes lysed 35±7% of the target cells compared to 12±3% by control cells.

For the next test, the system named is target cells. Briefly: Killing of target cells by IL-2-induced lymphocytes. In kind it is cell-based, human. Particulars: 5:1 effector to target cell ratio. How it is done: as §1
In test [1] the test system is MDSC colonies Clone 1 and Clone 2. Particulars: 1200 units/ml IL-2, seven days. Here is the method: To determine whether progeny of colonies derived from single MDSCs can be induced to differentiate into distinct cell lineages, cells from a five-day, 50 ng/ml, M-CSF-treated culture enriched to contain 99.97% peripheral blood monocytes were inoculated into 12 U-bottom tissue culture plates, 96 wells each, at 0.8 cells/well in 0.1-0.2 ml growth medium. The cells were then incubated in the presence of 50 ng/ml M-CSF and 1,000 units/ml LIF for 15-20 days. Additionally, one plate was incubated with 25% conditioned medium from a five-day, 50 ng/ml, M-CSF treated culture. […] The few wells that contained more than one cell were excluded from further experimentation. Medium was replaced every 5-7 days.
At 45-52 days, these cells were dispersed by forceful pipetting, without lidocaine, into flat-bottom, 96-well, tissue culture plates. […] Two colonies of MDSCs, each of which had arisen from a single cell, were chosen for further differentiation experiments and were termed Clone 1 and Clone 2. […] These antibodies separately recognized cell-surface markers that included the T lymphocyte marker CD3, the epithelial marker keratin, the endothelial marker vWF, the neuronal marker MAP1-B, and the hepatocyte marker AFP.

Read-outs that look alike come from different tables or passages of the source.

Regarding “IL-2: human recombinant interleukin-2, T-cell inducing agent”, in the test with MDSC cultures, the “CD3-positive cells also displaying CD8” value was “Roughly 75%”, the “cells exhibiting CD4” value is on record as “Less than 3%” and the “treated cells expressing CD3” value is recorded as “about 90%”. Further, the target cells lysed in the test with target cells was 35±7%. Besides, the “Immunostained cells (%), CD3 (Lymphocyte)” value in test [1] (Clone 1) is reported as 75%. For the same substance, the “Immunostained cells (%), CD3 (Lymphocyte)” value in test [1] (Clone 2) is on record as 81%.

Values taken from patent publication US20050260158A1, “Human stem cell materials and methods” (priority 2003, published 2005).
